Among the data in patent US4554284A, “7-(2-Aminoethyl)-1,3-benzthia- or oxa-zol-2(3H)-ones” (Smithkline Beckman Corporation, priority 1984, dated 1985) are EC50 values, retold here.

By UniProt entry, the sequences of proteins in these tests, tags left out. Residues count along the entry.
UniProt G1T1Q0, 1-443: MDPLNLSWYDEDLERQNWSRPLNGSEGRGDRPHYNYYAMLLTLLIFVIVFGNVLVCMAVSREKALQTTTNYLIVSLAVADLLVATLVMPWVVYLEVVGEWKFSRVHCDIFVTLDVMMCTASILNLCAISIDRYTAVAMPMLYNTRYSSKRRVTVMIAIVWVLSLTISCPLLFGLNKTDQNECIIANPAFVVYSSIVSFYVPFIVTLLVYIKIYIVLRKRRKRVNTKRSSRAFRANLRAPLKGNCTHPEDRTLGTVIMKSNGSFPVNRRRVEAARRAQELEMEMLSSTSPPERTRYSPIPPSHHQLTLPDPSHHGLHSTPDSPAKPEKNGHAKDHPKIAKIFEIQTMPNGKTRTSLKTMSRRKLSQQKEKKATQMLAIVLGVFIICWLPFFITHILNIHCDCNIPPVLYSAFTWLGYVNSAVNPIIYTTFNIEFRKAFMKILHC

The test deals with T1, D2-receptors (presynaptic dopaminergic receptors) (Oryctolagus cuniculus, UniProt G1T1Q0).
T1 construct: perfused rabbit ear artery protocol; from tissue; host or cells: rabbit ear artery (perfused, isolated)
Description: perfused rabbit ear artery protocol (D2-agonist activity). It counts as cell-based.

A word on the EC50: it is the midpoint of the concentration-response curve. Lower therefore signals an effect from little substance. As to `CCCN(CCC)CCc1ccc(O)c2c1CC(=O)N2` [F, 7-hydroxy-4-[2-(di-n-propylamino)ethyl]-2(3H)-indolone, reference compound], the midpoint of the response, the EC50, lay at 2 nM.
